Columns and labels:
skin = settings: guinea pig, in vivo
Protocol: Assoc. Food and Drug Officials, US. Appraisal of the safety of chemicals in Food, Drugs and Cosmetics, pp46-59, Texas State Dept. of Health, Austin, Tex. and 2 Federal Register (1973): Method of testing primary irritant substances 38(187): pp1500-1541]. Six kinds of the test solutions were prepared at the concentration of 0.3% by using o/w formulation or Lexol GT-865 as the carrier vehicle. First, hair was removed from the portion (dorsal skin of mouse) for applying the test solution and then the naked portion was adapted to the environmental circumstance for 24 hours in order to minimize the skin irritability. The test solution and gauze were applied to the established portion (1.5 cm×1.5 cm) for applying the test solution, which was then sealed with the solid thin film and fixed with the elastic bandage for 48 hours in order to inhibit the evaporation and loss of the test sample. After 2 and 24 hours from removal of the closed patch (i. e. 50 and 72 hours after patch application, respectively), the degree of irritation was determined.

auricular lymph node = settings: mouse, in vivo
Protocol: Toxicol. 10(3); 173-180]. […] Each of the test sample was applied to both ears of Blab/c mouse in an amount of 50μl for 3 days and then auricular lymph node was isolated from mouse. Lymph node was micronized to monocellular state and then incubated for 24 hours with addition of radioisotope (^3 H-thymidine).

[1] = test system: skin of 9-weeks aged naked female mouse
[2] = pH 7.4

polyethoxylated retinamide of formula (I) (R=methyl, n=9.8)
difference between the irritation degrees (skin): no significant difference | allergy induction in comparison to ethanol (auricular lymph node): three times and below | Degree of irritation [1]: 0.27 | Safety [1]: weak irritation | irritation [1]: weak irritation | Receptor solution (amount absorbed) [2]: 62.72 nmol
